{
  "source": "patent US20090062120A1",
  "about": "“Agrochemical Composition” (priority 2005, published 2009)",
  "format": "physicochemical",
  "conditions": "2,4-D isopropylamine salt 300 g/l",
  "description": "In the form of its amine salts, 2,4-dichlorophenoxyacetic acid tends to crystallize out of concentrated solutions. It is state of the art to use an approximately 5% addition of NMP in order to prevent crystallization. In the present example the isopropylamine salt of 2,4-dichlorophenoxyacetic acid was used, 2,4-D IPA for short.\nConcentrated aqueous solutions of 2,4-D in isopropylamine salt form (350 g/l) were admixed with quantities of demineralized water and of the corresponding solvent addition such that the concentration of 2,4-D isopropylamine salt was 300 g/l and that of the solvent under test was 5% v/v. Then the external appearance, instantaneously (see column 2 of Table 5) and after storage at 0° C. (see column 3 of Table 5), and also the external appearance of a 5% (v/v) dilution in water (standard water according to CIPAC method D, containing 500 ppm CaCO3), were observed and recorded (see columns 4 and 5 of Table 5). Particular emphasis was placed on any crystal formation.",
  "key": {"[1]": {"conditions": "solvent 5% by volume, 5% dilution in water, 24 hours, 30° C."}},
  "data": [
    {"compound": "CCCCOCCOCCOCCCC", "note": "[Diethylene glycol dibutyl ether]", "values": [
      {"measurement": "External appearance of dilution [5% in water]", "setting": "solvent 5% by volume, 5% (v/v) dilution in water, 500 ppm CaCO3", "value": "clear"},
      {"measurement": "Crystal formation in dilution [5% in water; 24 hours, 30° C.]", "setting": "[1]", "value": "<1", "unit": "%"},
      {"measurement": "External appearance of dilution [5% in water; 24 hours, 30° C.]", "setting": "[1]", "value": "turbid solution,"},
      {"measurement": "External appearance of formulation [25° C.; on day of preparation]", "setting": "solvent addition 5% by volume, 25° C., day of preparation", "value": "clear solution"},
      {"measurement": "External appearance of formulation [after 48 hours at 0° C.]", "setting": "solvent addition 5% by volume, after 48 hours at 0° C.", "value": "clear solution"}
    ]}
  ]
}
